Antibody variant affinities, Ab-14 heavy chain, assay 1

Source: Engelhart et al. 2022 (doi:10.1038/s41597-022-01779-4), MIT Lincoln Laboratory and A-Alpha Bio; data file from the FLAb repository.

All variants were tested on one target, the spike HR2 peptide PDVDLGDISGINAS (SARS-CoV-2).

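AAYL49 was designed without a model: most single CDR substitutions and a random sample of double and triple ones. The scFvs were displayed on barcoded MATa yeast, the peptide on MATalpha yeast. The frequency of each diploid, read from paired DNA barcodes, reflects how well the two displayed proteins bind. A regression on co-assayed BCL2-family reference pairs converts the normalised counts of each replicate to an apparent Kd. The assay was run in three technical replicates.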

Parent: Ab-14, a human scFv built as VH, the linker GGGGSGGGGSGGGGS, VL. Only the CDRs of the heavy chain vary.
VH: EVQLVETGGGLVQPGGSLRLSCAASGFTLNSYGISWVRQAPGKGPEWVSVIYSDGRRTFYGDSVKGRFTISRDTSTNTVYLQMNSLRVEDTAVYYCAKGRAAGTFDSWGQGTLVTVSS
VL: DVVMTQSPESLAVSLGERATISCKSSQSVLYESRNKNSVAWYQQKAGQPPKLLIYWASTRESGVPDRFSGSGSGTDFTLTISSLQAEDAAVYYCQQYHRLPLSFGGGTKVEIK

Positions count from residue 1 of the parent VH; L29M puts M in place of L. The read-out is the apparent dissociation constant on a log10 scale (nM): the lower, the stronger. The mean shown is taken over the replicates in which the pair was detected. An entry "not detected" has no value in the source: the pair was not observed among the diploids in any replicate. This suggests poor binding but is not conclusive. As a blank, each scFv also met three strains without target: over library AAYL49, 15% of these pairings were detected, typically at 4.06 and seldom below 2.83. The control count says in how many pairings with the empty strains this scFv gave a signal. Parent in this assay: reference entry 0.65, copy in this library 4.11 (one replicate of three).

changes,"mean, log10 nM",seen in,signal with controls
L29M/S35W,not detected,0/3,1/9
S35M/D54F/F59Y,3.36,1/3,2/9
Y32M/G33E/T58K,not detected,0/3,0/9
V64T/A102N/G103N,3.27,2/3,2/9
T28R/R56E/D106K,not detected,0/3,0/9
T28M/R56W/G99P,not detected,0/3,0/9
Y32V/D62S/V64N,not detected,0/3,0/9
S53P/G55T/R56A,not detected,0/3,0/9
G26L/I51D/Y60C,2.75,1/3,1/9
F27L/I51C/R56W,4.76,2/3,3/9
S35Y/G55K/A102V,3.43,1/3,0/9
F27Q/I34E/G99L,3.09,1/3,1/9
V50K/D62S/K65F,not detected,0/3,0/9
G26Y/Y60K/G99E,not detected,0/3,1/9
S31G/S63E,3.82,1/3,1/9
I51P/V64I/A102F,not detected,0/3,1/9
S31A/G33R/R100A,2.97,1/3,0/9
T28W/N30R/D106N,4.15,1/3,0/9
R56H/R57L/V64S,not detected,0/3,0/9
Y32C/G55P/S63W,not detected,0/3,0/9
S53V/T58K/G103R,not detected,0/3,0/9
N30T/V50D/K65R,5.64,1/3,2/9
I51K/F59K/D62K,not detected,0/3,2/9
Y52V/G99E,4.53,3/3,4/9
T28V/G55S/R57A,5.00,1/3,2/9
F27C/A102D,not detected,0/3,3/9
G61T/S63D/R100N,0.09,3/3,0/9
T58S/F59H/S63D,1.93,3/3,0/9
F27M/T28E/R100S,0.99,3/3,1/9
L29A/D106T/S107N,3.63,1/3,2/9
T28C/I51N/S63K,3.83,2/3,0/9
N30T/I51C,4.57,2/3,1/9
S31C/Y52M/F59T,3.14,1/3,2/9
F27H/T28V/D106S,not detected,0/3,1/9
Y32R/S63G/F105Y,4.31,1/3,3/9
G55C/V64G/S107F,4.27,1/3,0/9
V50W/R57A/A101R,not detected,0/3,2/9
L29Q/R57W/F59Q,not detected,0/3,0/9
S63N/G99S,4.72,1/3,2/9
G33I/S63V,not detected,0/3,0/9
S53I/A102Q,4.97,1/3,0/9
G33P/Y60C/D62L,4.10,2/3,1/9
G61F/V64I/D106N,not detected,0/3,0/9
V50C/A102K,5.25,1/3,2/9
V64Y/F105G/S107V,2.86,3/3,0/9
R57T/G103I/D106E,not detected,0/3,1/9
G55Q/R100L/G103M,not detected,0/3,0/9
I51G/R100Q/D106F,not detected,0/3,0/9
G61F/D62W/V64L,4.25,2/3,4/9
F27R/I34C/S53T,3.59,1/3,3/9
F27Y/S35Y/D106L,not detected,0/3,1/9
S35Q/I51V,not detected,0/3,0/9
S35W/K65M,not detected,0/3,0/9
D54C/G55T/R57W,not detected,0/3,0/9
I51W/S53V/K65L,not detected,0/3,1/9
S53R/G55L/A101V,not detected,0/3,0/9
G26T/G33S/V64G,5.15,1/3,3/9
I51A/T104R,not detected,0/3,0/9
V50C/I51F/D106N,4.71,3/3,6/9
V50Q/T58D/A102D,4.50,3/3,4/9
S31I/S53Y/V64T,3.21,1/3,1/9
S35L/V50M/S63P,not detected,0/3,0/9
G33N/I34Y/T58E,3.15,1/3,0/9
I34K/G99S/G103A,not detected,0/3,0/9
S31R/I34A/S107W,not detected,0/3,1/9
V50R/R57G/G103N,4.09,1/3,2/9
S31V/G99F/R100L,4.68,1/3,1/9
Y52G/S63L/G99L,4.58,1/3,3/9
G55H/R57V/F59S,5.46,1/3,0/9
S31D/G61T/T104I,1.02,3/3,3/9
R56V/Y60M/K65H,3.53,1/3,2/9
T58Y/K65L/G103P,4.62,2/3,3/9
S31N/G61A/R100C,not detected,0/3,1/9
S35W/K65F/G103S,not detected,0/3,0/9
S31G/V50E/F59H,3.87,3/3,3/9
S31K/Y52M/S53V,5.41,1/3,2/9
K65N/F105D/S107G,1.58,3/3,5/9

A selection of 10 entries from above:

changes,"mean, log10 nM",seen in,signal with controls
S53R/G55L/A101V,not detected,0/3,0/9
D54C/G55T/R57W,not detected,0/3,0/9
T58Y/K65L/G103P,4.62,2/3,3/9
L29M/S35W,not detected,0/3,1/9
S31N/G61A/R100C,not detected,0/3,1/9
V50Q/T58D/A102D,4.50,3/3,4/9
Y32V/D62S/V64N,not detected,0/3,0/9
S31G/V50E/F59H,3.87,3/3,3/9
G33P/Y60C/D62L,4.10,2/3,1/9
G55C/V64G/S107F,4.27,1/3,0/9